Results taken from patent publication US20240294519A1, “PYRROLO[2,3-b]PYRIDINE PGDH INHIBITORS AND METHODS OF MAKING AND USING” (EPIRIUM BIO INC., priority 2021, published 2024).

Amino acid sequences for entries named in this document (tags omitted).
UniProt P15428, whole entry: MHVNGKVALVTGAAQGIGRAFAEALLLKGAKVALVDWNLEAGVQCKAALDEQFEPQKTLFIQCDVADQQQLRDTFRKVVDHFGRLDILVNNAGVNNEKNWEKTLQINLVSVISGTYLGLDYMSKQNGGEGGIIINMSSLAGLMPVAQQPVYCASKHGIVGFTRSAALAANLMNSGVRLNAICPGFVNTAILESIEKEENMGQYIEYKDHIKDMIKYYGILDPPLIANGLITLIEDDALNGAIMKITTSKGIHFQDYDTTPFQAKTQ

How the values were obtained:
15-PGDH = 15-PGDH (Homo sapiens, UniProt P15428); experiment: A549 cell based assay: PGE2 in supernatant after IL-1β (HTRF); conditions: A549 cells, fold induction of PGE2, IL-1β plus test article versus IL-1β only
Experimental: Cell Based Assay: 15-PGDH is highly expressed in resting human lung adenocarcinoma cells (A549) (Tong et al., 2006), and this cell line was used to assess 15-PGDH inhibition by MF-300Na in vitro.
In this assay, A549 cells are treated with interleukin (IL) 1β, which induces the expression of cycloxygenase-2 and the synthesis of PGE2 (Tong et al., 2006). In the studies evaluating test articles, thirty thousand A549 cells were seeded in 100 μL F12K completed media and incubated for 24 hours at 37° C. with 5% CO2 before being serum-starved for 24 hours. On the day of the experiment, buffer was changed to complete medium, and cells were incubated for 30 minutes with compounds prior to the addition of IL-1β (final concentration of 0.1-0.25 ng/mL) overnight at 37° C. with 5% CO2. Each concentration was run in triplicate. […] The PGE2 in the supernatant was detected and quantified using a Cisbio HTRF technology (Homogeneous Time-Resolved Fluorescence) kit (62P2APEG-62P2APEH) according to the manufacturer's recommendations, quantifying the fold induction of PGE2 of cells treated with IL-1β plus test article, versus treatment with IL-1β only.

15-PGDH/HPGD = 15-PGDH/HPGD (Homo sapiens, UniProt P15428); experiment: hPGDH inhibitor screening biochemical assay; conditions: read-out: hPGDH: Average IC50; 10 nM enzyme, 15 μM PGE2, 0.25 mM NAD, fluorescence ex/em 340/485 nm
Experimental: A hydroxyprostaglandin dehydrogenase inhibition screening biochemical assay can be performed to assess the synthesized inhibitors provided herein. Provided herein is an exemplary biochemical assay for hPGDH inhibitor screening.
The in vitro biochemical assay can be performed in white, 384 plates in total 20 μl reaction volume consisting of 10 nM of 15-PGDH/HPGD (R&D System #5660-DH), 15 μM Prostaglandin E2 (Sigma, C8 t #P5640-10 MG) and 0.25 mM β-Nicotinamide adenine dinucleotide sodium salt (Sigma, C8 t #N0632-5G) made in reaction buffer (50 mM Tris-HCl, pH 7.5, 0.01% Tween 20) at 10-point dose response curve for test/tool compounds. Briefly, 5 μl (4×) of compounds solution and 5 μl (final concentration, 10 nM) of enzyme solution is added to white 384 well plates and incubated for 10 mins at 37° C. 5 μl (4×) of […] and 5 μl (4×) of β-Nicotinamide adenine dinucleotide sodium salt is added to the wells and incubated for 10 mins at room temperature. Fluorescence is recorded at ex/em=340 nm/485 nm. The percentage (%) inhibition of enzyme activity was determined relative to positive control (1% DMSO) and IC50 was calculated using GraphPad prism software (four parameter-variable slope equation).

CCOC(=O)N(C)c1cncc(-n2ccc3cc(C(=O)N4CCC(F)(F)CC4)cnc32)c1
PGE2 - HTRF over IL-β induction at 0.001 μM (15-PGDH): 1.54 | PGE2 - HTRF over IL-β induction at 0.01 μM (15-PGDH): 4.35 | PGE2 - HTRF over IL-β induction at 0.1 μM (15-PGDH): 6.28 | PGE2 - HTRF over IL-β induction at 1 μM (15-PGDH): 7.01 | IC50 (15-PGDH/HPGD): < 100 nM

C[C@H]1CCCN(C(=O)c2cnc3c(ccn3-c3ccc(N4CCN(C)C4=O)nc3)c2)C1
PGE2 - HTRF over IL-β induction at 0.001 μM (15-PGDH): 4.9 | PGE2 - HTRF over IL-β induction at 0.01 μM (15-PGDH): 7.31 | PGE2 - HTRF over IL-β induction at 0.1 μM (15-PGDH): 9.67 | PGE2 - HTRF over IL-β induction at 1 μM (15-PGDH): 4.03 | IC50 (15-PGDH/HPGD): < 100 nM

Cc1nc(-c2ccc(-n3ccc4cc(C(=O)N5CCC(F)(F)CC5)cnc43)cn2)nn1C
IC50 (15-PGDH/HPGD): < 100 nM

CO[C@H]1CCCN(C(=O)c2cnc3c(ccn3-c3ccc(-c4ncn[nH]4)nc3)c2)C1
IC50 (15-PGDH/HPGD): < 100 nM

CC1CN(C(=O)c2cnc3c(ccn3-c3ccc(N4CCOC4=O)nc3)c2)CCC1(F)F (stereo not drawn)
PGE2 - HTRF over IL-β induction at 0.001 μM (15-PGDH): 3.31 | PGE2 - HTRF over IL-β induction at 0.01 μM (15-PGDH): 3.35 | PGE2 - HTRF over IL-β induction at 0.1 μM (15-PGDH): 3.7 | PGE2 - HTRF over IL-β induction at 1 μM (15-PGDH): 4.03 | IC50 (15-PGDH/HPGD): < 100 nM

CC1(C)CCCN(C(=O)c2cnc3c(ccn3-c3ccc(-c4ncn[nH]4)nc3)c2)C1
IC50 (15-PGDH/HPGD): < 100 nM

CC(C)(C)OC(=O)Nc1cncc(-n2ccc3cc(C(=O)N4CCC(F)(F)CC4)cnc32)c1
PGE2 - HTRF over IL-β induction at 0.001 μM (15-PGDH): 2.34 | PGE2 - HTRF over IL-β induction at 0.01 μM (15-PGDH): 1.83 | PGE2 - HTRF over IL-β induction at 0.1 μM (15-PGDH): 2.99 | PGE2 - HTRF over IL-β induction at 1 μM (15-PGDH): 2.39 | IC50 (15-PGDH/HPGD): < 100 nM

Cc1nnc(-c2ccc(-n3ccc4cc(C(=O)N5CCC(F)(F)CC5)cnc43)cn2)n1C
IC50 (15-PGDH/HPGD): < 100 nM
